## scFv variants of Ab-91 (heavy chain) against a SARS-CoV-2 spike peptide

The target is the same throughout: PDVDLGDISGINAS, from the HR2 region of SARS-CoV-2 spike.

Parent scFv Ab-91: VL joined to VH by a (GGGGS)3 linker. Changes lie in the heavy chain CDRs alone.
VL: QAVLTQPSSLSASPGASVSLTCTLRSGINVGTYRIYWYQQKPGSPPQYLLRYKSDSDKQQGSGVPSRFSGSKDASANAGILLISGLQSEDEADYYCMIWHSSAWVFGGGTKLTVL
VH: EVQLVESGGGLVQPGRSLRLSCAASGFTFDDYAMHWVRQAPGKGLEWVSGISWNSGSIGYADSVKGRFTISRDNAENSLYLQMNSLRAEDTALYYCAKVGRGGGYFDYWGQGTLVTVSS

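The parent was found by panning a naive human phage display library on the peptide. In library AAYL51, one, two or three CDR residues were substituted; doubles and triples were drawn at random. Affinity was read by AlphaSeq, a pooled yeast mating assay with surface-displayed partners. Pairs that bind mate more often; barcode pairs of the diploids are counted by sequencing. A regression on co-assayed BCL2-family reference pairs converts the normalised counts of each replicate to an apparent Kd. The assay was run in three technical replicates.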

Variants are written as CDR1, CDR2 and CDR3 of the heavy chain (limits as in the source). Parent: GFTFDDYAMH, GISWNSGSIGYADSVK, VGRGGGYFDY.
Each Kd is an estimate from the mating assay, the geometric mean of the replicates in which the pair was seen; lower is stronger.
"not detected" marks a missing value. The strain was present, yet no cells mated with the target were sequenced in any replicate, which points to weak or no binding.
As a blank, each scFv also met three strains without target: over library AAYL51, 21% of these pairings were detected, typically at 34 µM and seldom below 1.8 µM. For each scFv, signals with the empty controls are counted beside the result.
For reference, the parent read 72 nM as the reference entry and 7.5 nM as a member of this library.

CDR-H1 | CDR-H2 | CDR-H3 | apparent Kd | detected | signal with controls
GFQFVDYAMH | GISWMSGSIGYADSVK | VGRGGGYFDY | 1.4 µM | 1/3 | 0/9
CFTFDDYLMH | GISWNSGSIGYADSVK | VGRGGGYFDP | 29 µM | 2/3 | 7/9
GFTFDDYAMH | GESWNSASIGYARSVK | VGRGGGYFDY | 20 µM | 2/3 | 2/9
GFTFDDYALH | GISWNSGSIGYADSVK | VGIGGGYEDY | 670 nM | 3/3 | 0/9
GNTFDDYAMH | GISWQSGSIGYADSVK | VGRGGGYHDY | not detected | 0/3 | 0/9
GFTFDDYAMH | GISWNSGSIFYADSVK | VGRGWGYFDT | 56 µM | 1/3 | 7/9
GFTGDDYAML | GISWNSGSIGYADSVK | VGRGGGYFWY | 430 µM | 1/3 | 1/9
GFTFDDYAPH | IISWNSGSIGYADSVK | VGRGGGYFIY | not detected | 0/3 | 0/9
GFTFDDYAMH | GISWNSGSIGYADCVK | HGRGDGYFDY | 130 µM | 1/3 | 0/9
GFTHDDYAMH | QISWNSGSIGYADSVL | VGRGGGYFDY | 42 µM | 2/3 | 3/9
GFTFDDYAMH | GISWISGSIGYADSVK | VGMGGRYFDY | 840 nM | 1/3 | 0/9
GFTFDDYAMH | GISFNSGSIGYADSVK | VGRGGGYADY | 10 nM | 3/3 | 1/9
GFTFDDYAMH | GISWYSGFIGYADSVK | VGRDGGYFDY | 680 nM | 1/3 | 0/9
GFMFDDYAMH | GISWNSGSIGYADSVK | VGRGGGYFDE | not detected | 0/3 | 0/9
GFTFDDYAMH | GMSWNSCSIGYADSVK | VGRGGYYFDY | 68 µM | 2/3 | 4/9
GFTFDDYAMH | GISWWSGSIGYADSVK | KGRGGGYFDY | 66 µM | 1/3 | 0/9
GFTFDDYKMH | GISWNSGSIGYADSRK | VGRPGGYFDY | 65 µM | 1/3 | 9/9
GVTFDDYAWH | GISWNSGSIGYADQVK | VGRGGGYFDY | not detected | 0/3 | 0/9
GFTFDYYAMH | GISWNSGSIGYADSVK | VGRQDGYFDY | not detected | 0/3 | 0/9
DFTFDDYAMH | GISWNSGSIGYADSTV | VGRGGGYFDY | 24 µM | 2/3 | 4/9
GFTFDDYSMH | GISWNSGSIGYADDVK | VGRGGGYFDY | 23 nM | 3/3 | 5/9
GFTFDDYEMH | GISWNHGSWGYADSVK | VGRGGGYFDY | not detected | 0/3 | 0/9
GFTFDDFAMH | GISWNRGSIGYADSVK | VGRGGGYFHY | not detected | 0/3 | 2/9
GFTFKDYAMH | GISWNSGSIGYADSVK | WGRGKGYFDY | 30 µM | 1/3 | 1/9
GFTFDDYAMH | GISWNSGSSGYADSVK | VGRGGGYDDT | 41 µM | 2/3 | 3/9
GFTFDDYAMH | TISWNSGSIGYADEVK | VGRGGGYFCY | not detected | 0/3 | 4/9
GFTFDDYAHH | GNSWNSGSIGYADSVK | VGRGGGCFDY | not detected | 0/3 | 0/9
GFTFDDYAMH | GISWNWGSINYADSVK | VGRGGGYCDY | not detected | 0/3 | 3/9
GFTFDDYAMH | GISWASGSIAYADSVK | VGRGGGYFAY | 120 µM | 2/3 | 3/9
GFTFDDYAMH | GISWNSGSPAYAESVK | VGRGGGYFDY | 130 µM | 1/3 | 1/9

Second part, the sequence after the result:

apparent Kd | detected | signal with controls | CDR-H1 | CDR-H2 | CDR-H3
23 µM | 2/3 | 2/9 | GFIFDDYAMH | MISWNSGSIGYADSVK | VGREGGYFDY
1.1 mM | 2/3 | 4/9 | GFTFDDYAMH | GICRNSGSIGYADSVK | VGRGGGYFDA
not detected | 0/3 | 0/9 | GFTLDDYAMH | GISWNSGSIVYADSVK | VGRGGGYFDY
not detected | 0/3 | 0/9 | GFTFDDYAYH | GISWNSGSIGYPDSVK | VARGGGYFDY
not detected | 0/3 | 1/9 | FFTFDDYAMH | GTSMNSGSIGYADSVK | VGRGGGYFDY
93 µM | 3/3 | 5/9 | GFTFDDYAMH | GIQWNSGSEGYADSNK | VGRGGGYFDY
45 µM | 1/3 | 4/9 | GFTFDDYAMH | GIVWNSGLIGYADEVK | VGRGGGYFDY
not detected | 0/3 | 2/9 | GFTFDDYAMF | GISWNPGSIGYLDSVK | VGRGGGYFDY
not detected | 0/3 | 1/9 | GFTFDDYAMH | TISWNSGSYGYAFSVK | VGRGGGYFDY
11 µM | 1/3 | 3/9 | GFTFDDYAMH | GISWNSGSGGYADSPT | VGRGGGYFDY
not detected | 0/3 | 0/9 | GHTFDDYNHH | GISWNSGSIGYADSVK | VGRGGGYFDY
not detected | 0/3 | 2/9 | GFTRLDYAMH | GISWNSGSIGPADSVK | VGRGGGYFDY
8.5 µM | 1/3 | 2/9 | GFTFDDYAMH | GIASNSGSIMYADSVK | VGRGGGYFDY
not detected | 0/3 | 1/9 | GFTFDDYAMH | NISWNSGSIGYARSVK | VGRGGGMFDY
2.8 µM | 2/3 | 1/9 | GFQFDDYAMH | GINWNSGSIGLADSVK | VGRGGGYFDY
6.9 nM | 3/3 | 1/9 | YFTFDDYAMH | GISWNSGSIGYADSVK | VGRGGGYFDA
not detected | 0/3 | 1/9 | GFTFDDYAMH | GISWNSESIGYADPVK | VIRGGGYFDY
200 nM | 3/3 | 1/9 | GFTFDDYAMH | GISWNQGSIGYADSVK | FGRGGGYFDY
620 µM | 1/3 | 4/9 | GFTFDDYAMH | GIVWNSGSIWYADSVK | VGRGGGYFDK
19 µM | 1/3 | 1/9 | GGTFDDYWMH | GISANSGSIGYADSVK | VGRGGGYFDY
100 µM | 2/3 | 3/9 | GFTFDDYAMH | GISWNSGSIGYADSVK | VDSGPGYFDY
not detected | 0/3 | 0/9 | GFTFDIYAMH | GISWNSGSIGKADSVK | VGRGGGYFDY
350 µM | 1/3 | 1/9 | GFTFDDYAMH | VISWNCGSIGYADSVK | VGRGGVYFDY
87 nM | 3/3 | 2/9 | GFTFDNYAMH | GISWNQGSIGYADSVK | VGRGGGYFDF
not detected | 0/3 | 1/9 | GFTFDDYPMH | GISWNSGSIIYIDSVK | VGRGGGYFDY
not detected | 0/3 | 1/9 | GFTFDDYAMH | GISWNSGAIGYADSYK | AGRGGGYFDY
not detected | 0/3 | 0/9 | GFTHDDYAMH | GISWNSGSIGYAFKVK | VGRGGGYFDY
160 µM | 2/3 | 0/9 | GFTFDDYAMH | GISWNSGSLGYADSVK | EGRGGGYFDY
11 µM | 3/3 | 5/9 | GFTFDDYAMH | AISWNSGSIQYADSVK | VGRGQGYFDY
150 nM | 3/3 | 1/9 | GFTFDDYAMH | GISYNSGSDGYADSVK | VGRGGGYFDA
120 µM | 2/3 | 2/9 | GFPFDFYAMH | GISWNSGSIGYADSVK | VGRGGGYVDY

The measurements come from Engelhart et al. 2022 (doi:10.1038/s41597-022-01779-4) through the FLAb antibody collection.